# Assay results taken from patent US20040076974A1, “Liver necrosis predictive genes” (priority 2002, published 2004).
# Key:
# Sprague Dawley rats = settings: rat, in vivo
# [1] = tested on: toxicologically relevant rat genes (rat CT array); settings: in vivo
SMILES,toxicity at the low dose (Sprague Dawley rats),Cytochrome P450 3A1 expression [1]
S=C=Nc1cccc2ccccc12 [1-naphthylisothiocyanate],not at the low dose,
CN(C)[C@@H]1C(O)=C(C(N)=O)C(=O)[C@@]2(O)C(O)=C3C(=O)c4c(O)cccc4[C@@](C)(O)[C@H]3C[C@@H]12 [tetracycline],,1.057
